Assay results published in patent US12281328B2, “Photoreceptor cells for the treatment of retinal diseases” (Hadasit Medical Research Services and Development Ltd., priority 2017, dated 2025).

Test system: hESC-derived spheroid bodies (SBs)
Assay: Quantity and morphology of SBs with addition of HSA to the culture medium
Type: cell-based, human
Protocol: SBs were generated under non-adherent conditions (day 0) from cord-feeder-conditioned media culture systems, or from feeder free laminin 521 culture systems, as described above. SBs were cultured in the following medium: NUTRISTEM® minus medium (Biological industries, Beit Haemek, Israel) supplemented with 50 U/ml penicillin and 50 μg/ml streptomycin (Gibco-BRL, Carlsbad, Calif.). In the initial 0 to 6 days of SBs culture (under non-adherent conditions), the medium was supplemented with 10 mM nicotinamide (Sigma, St. Louis, Mo.). It was further supplemented with the addition of the following factors in different combinations: 10 mM nicotinamide (Sigma, St. Louis, Mo.), 3 μM endo-IWR 1 (IWR1e; TOCRIS, a biotechne brand, Minneapolis, Minn.), 20 ng/ml bFGF (PeproTech Inc., Rocky Hill, N.J.), 5 ng/ml IGF1 (R&D Systems Inc., Minneapolis, Minn.) and 3 μM CHIR99021 (CHIR; PeproTech Inc., Rocky Hill, N.J.). Various combinations of the following supplements were also evaluated: 0.5-1% HSA (Albumin 25%, Octapharma, Elersvagen, Sweden), 1% MATRIGEL™ (growth-factor-reduced; BD Biosciences), 1-10 μg/ml Laminin 511 and/or 521 (BioLamina, Sundbyberg, Sweden), 3-10 μg/ml Collagen human (Sigma St. Louis Mo.) for 2 to 8 weeks.
The addition of HSA to the culture medium of the SBs was also analyzed. FIG. 36 provides an illustration of the timeline and agents that were analyzed. The quantity of SBs that were generated was increased with the addition of HSA.

[1] = addition of HSA to SB culture medium

In the case of “HSA: human serum albumin, 0.5-1% (Albumin 25%, Octapharma), supplement of the SB culture medium”, the “size and compaction of SBs” value (NIC+IWR1e+HSA vs NIC+IWR1e, FIG. 37A, 37B) is reported as “larger and more compacted”, the “quantity of SBs generated” value [1] is reported as “increased” and the “yield of retinal progenitor cells and efficiency of differentiation” value [1] is reported as “improves the yield of retinal progenitor cells and also the efficiency of differentiation”.
